Measured values reported in US20240277758A1.

Assay: Solubility in water/organic mixtures
Details: same water/organic mixtures; acetonitrile mixture only after adjusting water to 70%

sodium thiosulfate
solubility of sodium thiosulfate: ≥ 94 mg/mL
